{"source": "paper PMC11662004", "about": "(Communications Chemistry, 2024)", "biological_target": "T1, NgTet1 (Naegleria gruberi, UniProt D2W6T1)", "T1 construct": "His6-tagged full-length Naegleria gruberi NgTet1 (321 a. a.) protein with a thrombin cleavage site; made in house; host or cells: E. coli BL21(DE3)", "T1 sequence (D2W6T1 1-321)": "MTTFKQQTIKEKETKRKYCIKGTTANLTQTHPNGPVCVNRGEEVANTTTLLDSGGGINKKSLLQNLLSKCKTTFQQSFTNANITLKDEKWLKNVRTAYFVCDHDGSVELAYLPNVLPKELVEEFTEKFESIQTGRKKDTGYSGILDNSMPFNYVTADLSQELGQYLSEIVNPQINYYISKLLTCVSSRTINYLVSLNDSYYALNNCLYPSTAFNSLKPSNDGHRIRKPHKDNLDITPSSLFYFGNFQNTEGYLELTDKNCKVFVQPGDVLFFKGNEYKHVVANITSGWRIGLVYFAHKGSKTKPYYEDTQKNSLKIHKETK", "format": "biochemical", "details": "20 µM 5mC DNA vs no DNA", "experimental": "Double-stranded 12 bp DNA oligomers were added at a final concentration of 20 µM. […]\nDouble-stranded DNA oligomers were added at a final concentration of 20 µM. […]\nAll ^1H NMR spectra were recorded at 25 °C using D2O as a reference for internal deuterium lock on a Bruker Avance III 700 MHz equipped with an inverse TCI cryoprobe in 3 or 5 mm diameter tubes with a total sample volume of 160 or 565 μL, respectively. The water signal was reduced using Perfect Echo excitation sculpting suppression. Chemical shifts are reported in ppm relative to D2O (δH = 4.70 ppm).\nSpectrometer settings were determined using a control sample containing all reaction components excluding enzyme. TET enzyme was added to an identical sample, and the resulting assay mixture was transferred to an NMR tube before deposition into the instrument. […] Spectrum recordings were carried out consecutively without delay. Data were processed using automated routines on MestReNova v14.2.0; signals of interest were integrated with absolute intensity scaling. ^1H NMR time courses reported in figures are representative results from two or three independent replicates.", "data": [{"smiles": "O=C(O)CCC(=O)C(=O)O", "note": "[2OG, 2-oxoglutarate]", "values": [{"measurement": "enhancement of maximum 2OG decarboxylation rate on substrate saturation", "value": 3, "unit": "fold"}, {"measurement": "increase of apparent catalytic efficiency on substrate saturation", "value": 5, "unit": "fold"}]}]}
